{
  "source": "patent US20190327961A1",
  "about": "“STABLE SOLID COMPOSITION BASED ON AN AROMATIC COMPOUND AND USES THEREOF” (priority 2016, published 2019)",
  "tested_on": "cherry tomatoes (Angel D1A1 variety)",
  "assay": "Washing of cherry tomatoes post-harvest, storage test",
  "type": "in vivo",
  "data": [
    {"substance": "chlorine", "values": [
      {"measurement": "Percentage of Rotten Cherry Tomatoes", "setting": "Stored at 8° C., 4 d", "value": 2, "unit": "%"},
      {"measurement": "Percentage of Rotten Cherry Tomatoes", "setting": "Stored at 8° C., 6 d", "value": 6.67, "unit": "%"},
      {"measurement": "Percentage of Rotten Cherry Tomatoes", "setting": "Stored at 8° C., 8 d", "value": 10, "unit": "%"},
      {"measurement": "Percentage of Rotten Cherry Tomatoes", "setting": "Stored at 8° C., 10 d", "value": 15, "unit": "%"},
      {"measurement": "Percentage of Rotten Cherry Tomatoes", "setting": "Stored at 8° C., 12 d", "value": 30, "unit": "%"},
      {"measurement": "Percentage of Rotten Cherry Tomatoes", "setting": "Stored at 8° C., 14 d", "value": 37.68, "unit": "%"},
      {"measurement": "Percentage of Rotten Cherry Tomatoes", "setting": "Stored at 8° C., 16 d", "value": 50, "unit": "%"},
      {"measurement": "Percentage of Rotten Cherry Tomatoes", "setting": "Stored at 25° C., 4 d", "value": 9.55, "unit": "%"},
      {"measurement": "Percentage of Rotten Cherry Tomatoes", "setting": "Stored at 25° C., 6 d", "value": 20.58, "unit": "%"},
      {"measurement": "Percentage of Rotten Cherry Tomatoes", "setting": "Stored at 25° C., 8 d", "value": 42.9, "unit": "%"},
      {"measurement": "Percentage of Rotten Cherry Tomatoes", "setting": "Stored at 25° C., 10 d", "value": 47.9, "unit": "%"},
      {"measurement": "Percentage of Rotten Cherry Tomatoes", "setting": "Stored at 25° C., 12 d", "value": 50, "unit": "%"},
      {"measurement": "Percentage of Rotten Cherry Tomatoes", "setting": "Stored at 25° C., 14 d", "value": 57.15, "unit": "%"},
      {"measurement": "Percentage of Rotten Cherry Tomatoes", "setting": "Stored at 25° C., 16 d", "value": 64.28, "unit": "%"}
    ]}
  ]
}
